Results from ChEMBL document CHEMBL1127663, “High-affinity and potent, water-soluble 5-amino-1,4-benzodiazepine CCKB/gastrin receptor antagonists containing a cationic solubilizing group” (J Med Chem, 1994).

Amino acid sequences for entries named in this document (tags omitted).
UniProt P30551, whole entry: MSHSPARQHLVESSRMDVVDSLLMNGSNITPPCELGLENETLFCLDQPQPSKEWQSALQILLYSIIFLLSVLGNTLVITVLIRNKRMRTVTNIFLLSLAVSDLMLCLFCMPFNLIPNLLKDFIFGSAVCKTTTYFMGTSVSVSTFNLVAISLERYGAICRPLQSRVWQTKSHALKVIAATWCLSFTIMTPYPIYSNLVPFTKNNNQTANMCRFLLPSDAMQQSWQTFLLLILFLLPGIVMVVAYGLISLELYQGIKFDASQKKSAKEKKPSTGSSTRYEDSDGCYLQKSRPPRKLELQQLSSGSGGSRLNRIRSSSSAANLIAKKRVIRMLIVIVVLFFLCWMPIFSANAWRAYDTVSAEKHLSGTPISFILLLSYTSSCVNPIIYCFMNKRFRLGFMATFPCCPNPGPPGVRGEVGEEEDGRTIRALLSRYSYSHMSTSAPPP

Target: Cholecystokinin receptor type A (Rattus norvegicus, UniProt P30551)
Assay: Binding activity against Cholecystokinin type A receptor from rat pancreas using [125]BH CCK-8s as radioligand.

For Cc1cccc(NC(=O)N[C@@H]2N=C(N3CC4CCC(CC4)C3)c3ccccc3N(C)C2=O)c1, the IC50 was 1.6 µM.
